For the experiment, the target named is TLN1 PTB (Homo sapiens, UniProt Q9Y490). Type of experiment: binding. The note with it: for NGS_counts log2_total: DMS-BM phage selection against TLN1 PTB, log2 of summed NGS counts.

Chains of the proteins cited; added tags and fusions are not shown. Residues count along the entry.
UniProt Q9Y490, 309-401: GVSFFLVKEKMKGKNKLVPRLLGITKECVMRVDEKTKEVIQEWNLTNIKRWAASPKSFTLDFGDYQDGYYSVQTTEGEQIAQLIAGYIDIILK

Regarding Ac-LADLIFTDNKLYIPLE-NH2 [TPTE2_S100N], the “NGS_counts log2_total” value is on record as 8.22.
For the substance Ac-LADLIFTDSALYIPLE-NH2 [TPTE2_K101A], the “NGS_counts log2_total” value came to 7.83.
As for Ac-LADLIFTDSKLWIPLE-NH2 [TPTE2_Y103W], the “NGS_counts log2_total” value worked out at 5.13.
For Ac-LADLIFTDSKLYAPLE-NH2 [TPTE2_I104A], the “NGS_counts log2_total” value was found to be 2.58.
For Ac-LADLIFTDSKLYIPLE-NH2 [TPTE2 wt], the “NGS_counts log2_total” value is reported as 8.69.
Turning to Ac-LADLIFTDSKLYLPLE-NH2 [TPTE2_I104L], the “NGS_counts log2_total” value was 9.14.
Take Ac-LADLIWTDSKLYIPLE-NH2 [TPTE2_F97W]: the “NGS_counts log2_total” value worked out at 7.16.
On to Ac-LADLIYTDSKLYIPLE-NH2 [TPTE2_F97Y], for which the “NGS_counts log2_total” value is 3.91.
In the case of FPTDERSWVYSPLHYS D4A (FPTAERSWVYSPLHYS), the “DMS-derived PSSM value of the single-substitution variant” value (from here on “DMS-derived PSSM value”) was 0.0399.
Consider FPTDERSWVYSPLHYS D4D, for which the “DMS-derived PSSM value” value is 0.04783.
For the substance FPTDERSWVYSPLHYS D4E (FPTEERSWVYSPLHYS), the “DMS-derived PSSM value” value amounted to 0.01007.
Turning to FPTDERSWVYSPLHYS D4F (FPTFERSWVYSPLHYS), the “DMS-derived PSSM value” value is recorded as 0.0552.
The same measure, in the same setting: then FPTDERSWVYSPLHYS D4G (FPTGERSWVYSPLHYS), with 0.263.
Same read-out and setting: then FPTDERSWVYSPLHYS D4H (FPTHERSWVYSPLHYS), with 0.08834; and FPTDERSWVYSPLHYS D4I (FPTIERSWVYSPLHYS), with 0.02659.
As for FPTDERSWVYSPLHYS D4K (FPTKERSWVYSPLHYS), the “DMS-derived PSSM value” value was determined as 0.
Same read-out and setting: for FPTDERSWVYSPLHYS D4L (FPTLERSWVYSPLHYS) the value was 0.1193; for FPTDERSWVYSPLHYS D4M (FPTMERSWVYSPLHYS), 0.01007; for FPTDERSWVYSPLHYS D4N (FPTNERSWVYSPLHYS), 0.0112.
With FPTDERSWVYSPLHYS D4P (FPTPERSWVYSPLHYS), the “DMS-derived PSSM value” value came to 0.02886.
Take FPTDERSWVYSPLHYS D4Q (FPTQERSWVYSPLHYS): the “DMS-derived PSSM value” value is 0.04439.
Still for that read-out and setting: for FPTDERSWVYSPLHYS D4R (FPTRERSWVYSPLHYS) the value was 0.05711.
Regarding FPTDERSWVYSPLHYS D4S (FPTSERSWVYSPLHYS), the “DMS-derived PSSM value” value was determined as 0.09689.
Turning to FPTDERSWVYSPLHYS D4T (FPTTERSWVYSPLHYS), the “DMS-derived PSSM value” value amounted to 0.04433.
On the same count and under the same terms, for FPTDERSWVYSPLHYS D4V (FPTVERSWVYSPLHYS) the value was 0.0189; for FPTDERSWVYSPLHYS D4W (FPTWERSWVYSPLHYS), 0.03033.
On to FPTDERSWVYSPLHYS D4Y (FPTYERSWVYSPLHYS), for which the “DMS-derived PSSM value” value was 0.007692.
Regarding FPTDERSWVYSPLHYS E5A (FPTDARSWVYSPLHYS), the “DMS-derived PSSM value” value turned out to be 0.02052.
Take FPTDERSWVYSPLHYS E5D (FPTDDRSWVYSPLHYS): the “DMS-derived PSSM value” value is 0.00185.
FPTDERSWVYSPLHYS E5E: the “DMS-derived PSSM value” value is 0.01423.
On to FPTDERSWVYSPLHYS E5F (FPTDFRSWVYSPLHYS), for which the “DMS-derived PSSM value” value came to 0.04033.
Same read-out and setting: then FPTDERSWVYSPLHYS E5G (FPTDGRSWVYSPLHYS), with 0.02315.
On to FPTDERSWVYSPLHYS E5H (FPTDHRSWVYSPLHYS), for which the “DMS-derived PSSM value” value came out at 0.05296.
Regarding FPTDERSWVYSPLHYS E5I (FPTDIRSWVYSPLHYS), the “DMS-derived PSSM value” value is 0.07824.
For the substance FPTDERSWVYSPLHYS E5K (FPTDKRSWVYSPLHYS), the “DMS-derived PSSM value” value is listed as 0.01114.
With FPTDERSWVYSPLHYS E5L (FPTDLRSWVYSPLHYS), the “DMS-derived PSSM value” value is 0.2094.
Still for that read-out and setting: for FPTDERSWVYSPLHYS E5M (FPTDMRSWVYSPLHYS) the value was 0.02876.
The same measure, in the same setting: then FPTDERSWVYSPLHYS E5N (FPTDNRSWVYSPLHYS), with 0.1109.
Consider FPTDERSWVYSPLHYS E5P (FPTDPRSWVYSPLHYS), for which the “DMS-derived PSSM value” value was determined as 0.1802.
FPTDERSWVYSPLHYS E5Q (FPTDQRSWVYSPLHYS): the “DMS-derived PSSM value” value was 0.006665.
Same read-out and setting: for FPTDERSWVYSPLHYS E5R (FPTDRRSWVYSPLHYS) the value was 0.001144; for FPTDERSWVYSPLHYS E5S (FPTDSRSWVYSPLHYS), 0.02969.
Take FPTDERSWVYSPLHYS E5T (FPTDTRSWVYSPLHYS): the “DMS-derived PSSM value” value was 0.04923.
On the same count and under the same terms, then FPTDERSWVYSPLHYS E5V (FPTDVRSWVYSPLHYS), with 0.02298; and FPTDERSWVYSPLHYS E5W (FPTDWRSWVYSPLHYS), with 0.09877.
Still for that read-out and setting: then FPTDERSWVYSPLHYS E5Y (FPTDYRSWVYSPLHYS), with 0.01982; and “FPTDERSWVYSPLHYS H14A (FPTDERSWVYSPLAYS)”, with 0.04045.
Same read-out and setting: for “FPTDERSWVYSPLHYS H14D (FPTDERSWVYSPLDYS)” the value was 0.07099.
“FPTDERSWVYSPLHYS H14E (FPTDERSWVYSPLEYS)”: the “DMS-derived PSSM value” value worked out at 0.07798.
On the same count and under the same terms, for “FPTDERSWVYSPLHYS H14F (FPTDERSWVYSPLFYS)” the value was 0.004934.
On to “FPTDERSWVYSPLHYS H14G (FPTDERSWVYSPLGYS)”, for which the “DMS-derived PSSM value” value amounted to 0.03957.
In the case of FPTDERSWVYSPLHYS H14H, the “DMS-derived PSSM value” value came to 0.02344.
Same read-out and setting: then “FPTDERSWVYSPLHYS H14I (FPTDERSWVYSPLIYS)”, with 0.007983; and “FPTDERSWVYSPLHYS H14K (FPTDERSWVYSPLKYS)”, with 0.02888.
Still for that read-out and setting: then “FPTDERSWVYSPLHYS H14L (FPTDERSWVYSPLLYS)”, with 0.01725.
Consider “FPTDERSWVYSPLHYS H14M (FPTDERSWVYSPLMYS)”, for which the “DMS-derived PSSM value” value stood at 0.215.
As to “FPTDERSWVYSPLHYS H14N (FPTDERSWVYSPLNYS)”, the “DMS-derived PSSM value” value turned out to be 0.005491.
Regarding “FPTDERSWVYSPLHYS H14P (FPTDERSWVYSPLPYS)”, the “DMS-derived PSSM value” value was 0.0415.
On the same count and under the same terms, for “FPTDERSWVYSPLHYS H14Q (FPTDERSWVYSPLQYS)” the value was 0.0224.
As to “FPTDERSWVYSPLHYS H14R (FPTDERSWVYSPLRYS)”, the “DMS-derived PSSM value” value worked out at 0.02865.
Same read-out and setting: then “FPTDERSWVYSPLHYS H14S (FPTDERSWVYSPLSYS)”, with 0.06988.

Values taken from paper PMC12102759 (Protein Science : A Publication of the Protein Society, 2025).
